Values quoted from earlier work, collected in patent US7410949B2, “Neuropeptide-2 receptor (Y-2R) agonists and uses thereof” (Hoffmann-La Roche Inc., priority 2005, dated 2008).

Tested on: rats
Conditions: cited from earlier work

Compound: CC[C@H](C)[C@H](N)C(=O)N[C@@H](CCCCN)C(=O)N1CCC[C@H]1C(=O)N[C@@H](CCC(=O)O)C(=O)N[C@@H](C)C(=O)N1CCC[C@H]1C(=O)NCC(=O)N[C@@H](CCC(=O)O)C(=O)N[C@@H](CC(=O)O)C(=O)N[C@@H](C)C(=O)N[C@@H](CO)C(=O)N1CCC[C@H]1C(=O)N[C@@H](CCC(=O)O)C(=O)N[C@@H](CCC(=O)O)C(=O)N[C@@H](CC(C)C)C(=O)N[C@@H](CC(N)=O)C(=O)N[C@@H](CCCNC(=N)N)C(=O)N[C@@H](Cc1ccc(O)cc1)C(=O)N[C@@H](Cc1ccc(O)cc1)C(=O)N[C@@H](C)C(=O)N[C@@H](CO)C(=O)N[C@@H](CC(C)C)C(=O)N[C@@H](CCCNC(=N)N)C(=O)N[C@@H](Cc1c[nH]cn1)C(=O)N[C@@H](Cc1ccc(O)cc1)C(=O)N[C@@H](CC(C)C)C(=O)N[C@@H](CC(N)=O)C(=O)N[C@@H](CC(C)C)C(=O)N[C@H](C(=O)N[C@H](C(=O)N[C@@H](CCCNC(=N)N)C(=O)N[C@@H](CCC(N)=O)C(=O)N[C@@H](CCCNC(=N)N)C(=O)N[C@@H](Cc1ccc(O)cc1)C(N)=O)[C@@H](C)O)C(C)C [Example 4]
- feeding (Intra-arcuate (IC) or Intra-peritoneal (IP) injection): reduced feeding
- body weight gain (chronic treatment): reduced body weight gain
